Measurements from PubChem BioAssay AID560 (The Scripps Research Institute Molecular Screening Center, 2006).
The list shows a part of the results, in another mix than the full data. Calls of active or inactive are those of the source.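 Rule for the calls: active = activation above the mean of all tested compounds plus 3 SD (cut at about 49% in these data); inactive = the rest.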

Amino acid sequences for entries named in this document (tags omitted).
UniProt P35398, whole entry: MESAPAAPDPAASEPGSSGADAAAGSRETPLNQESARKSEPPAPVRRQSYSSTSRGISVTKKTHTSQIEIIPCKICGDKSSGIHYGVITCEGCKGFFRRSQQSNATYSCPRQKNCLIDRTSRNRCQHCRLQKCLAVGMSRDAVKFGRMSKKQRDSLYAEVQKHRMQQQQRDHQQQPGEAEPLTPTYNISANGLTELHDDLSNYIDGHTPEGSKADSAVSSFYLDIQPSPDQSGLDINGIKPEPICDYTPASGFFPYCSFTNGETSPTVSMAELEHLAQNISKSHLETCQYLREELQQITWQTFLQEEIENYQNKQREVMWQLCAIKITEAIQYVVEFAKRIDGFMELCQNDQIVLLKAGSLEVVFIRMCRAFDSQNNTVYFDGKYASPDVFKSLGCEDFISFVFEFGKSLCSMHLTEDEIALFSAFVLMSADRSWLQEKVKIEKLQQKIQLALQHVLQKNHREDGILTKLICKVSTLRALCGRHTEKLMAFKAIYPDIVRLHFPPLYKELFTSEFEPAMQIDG

Biological target: Nuclear receptor ROR-alpha (Homo sapiens) (UniProt P35398)
Test: RORA ligand-binding domain transcriptional activation – cell-based, luminescence, primary screen (AID 560);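 note: 0% = DMSO-treated RORA cells and 100% = added signal equal to DMSO minus mock-transfected cells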
Details: CHO-K1 Gal4-RORA LBD luciferase reporter, at 10 µM, stronger effect = higher value, percent increase over mock-subtracted basal signal

Row | SMILES | activation
1 | CP(=O)(Nc1ccc2c(c1)OCCO2)Oc1ccccc1 (stereo unspecified) | inactive: 17.9%
